## Ab-14 light chain CDR variants: yeast mating affinities

All variants were tested on one target, the spike HR2 peptide PDVDLGDISGINAS (SARS-CoV-2).

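The parent was found by panning a naive human phage display library on the peptide. AAYL50 was designed without a model: most single CDR substitutions and a random sample of double and triple ones. Affinity was read by AlphaSeq, a pooled yeast mating assay with surface-displayed partners. Binding brings cells together so that they mate, and sequencing counts the barcode pairs among the diploids. Scores were corrected for input abundance and mapped to Kd with protein pairs of known affinity run in the same pool. Mating was done three times.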

Parent scFv Ab-14: VH joined to VL by the linker GGGGSGGGGSGGGGS. Changes lie in the light chain CDRs alone.
VH: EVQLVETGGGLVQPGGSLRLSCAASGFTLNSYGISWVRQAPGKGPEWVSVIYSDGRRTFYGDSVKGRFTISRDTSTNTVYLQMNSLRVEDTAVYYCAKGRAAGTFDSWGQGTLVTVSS
VL: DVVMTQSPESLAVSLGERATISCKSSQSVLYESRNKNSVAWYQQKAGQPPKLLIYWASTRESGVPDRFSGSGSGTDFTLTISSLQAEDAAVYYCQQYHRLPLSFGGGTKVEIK

Each variant is given by its three light chain CDRs, as the data file delimits them; those of the parent are KSSQSVLYESRNKNSVA, WASTRES, QQYHRLPLS.
The read-out is the apparent dissociation constant on a log10 scale (nM): the lower, the stronger.
Replicates are averaged; those with no signal do not enter the mean.
"nd" means that the variant was in the library but no mating with the target was seen in that replicate; the authors take this as a sign of poor binding, and no number exists.

CDR-L1,CDR-L2,CDR-L3,log10 Kd (nM) by replicate,mean log10 Kd (nM),empty controls
KSSQSVLLESRNKNSVA,WASTRES,QQAHRLPLF,1.91 2.02 1.97,1.97,0 of 9
KSSQSVGYESSNKNSVA,WASTRES,QQPHRLPLS,0.01 0.27 0.06,0.12,2 of 9 (4.09)
KSSQSELYYSRNKNSVA,WASTRES,MQYHRLPLS,1.29 1.21 1.22,1.24,5 of 9 (4.07)
KSSQSVLYMSRNKNSVA,WASTRES,QQDHRLPYS,1.74 1.60 1.81,1.72,0 of 9
KSMQSVLYESNNKNSVA,YASTRES,QQYHRLPLS,0.33 0.67 0.82,0.61,1 of 9 (4.00)
KSSGSVLYESRNKNMVA,WASTRES,QQYHSLPLS,3.63 3.29 4.53,3.82,6 of 9 (4.26)
KSSQSVLYESRNKNSQA,WASWRES,QQYHRLPLG,nd 3.79 nd,3.79,1 of 9 (4.26)
GSSQSVLYESRNKNSVA,NASTRES,QQNHRLPLS,1.14 1.20 1.29,1.21,0 of 9
KSSCSVLYESRNKNSSA,WASTRES,QQYHRLPLS,nd nd nd,nd,0 of 9
KSSQSVLYESRNKNSVA,WASTRES,QIYHRLRLS,nd nd nd,nd,0 of 9
KSSHSVLYESRNKNSVA,WASTRES,QYYHRLPLS,2.91 2.23 3.38,2.84,0 of 9
FSSQSVLYESRNKNSVA,WASTRES,QQYHRLPLM,1.60 3.29 nd,2.45,0 of 9
KSSQSVLYESRYRNSVG,WASTRES,QQYHRLPLS,nd nd nd,nd,1 of 9 (3.31)
KSSQSSLYESRHKNSVA,WASVRES,QQYHRLPLS,1.19 0.95 1.55,1.23,2 of 9 (3.46)
KSSQSVLYESRNKNSVA,WASTRES,QQYHRLPAS,nd nd nd,nd,0 of 9
KSSQSVLEESRNKNSNA,WASTRES,QQYHRLPLS,nd 3.64 nd,3.64,1 of 9 (4.34)
KSSQSNLLESRNNNSVA,WASTRES,QQYHRLPLS,0.64 0.84 1.13,0.87,4 of 9 (4.12)
KSSQSVIYESRNKNSVA,WGSTREM,QQYHRLPLS,0.45 0.62 0.64,0.57,2 of 9 (3.26)
KSSQSVLEESRNKNSVA,WASTRES,DQYHRYPLS,nd 5.19 nd,5.19,0 of 9
KSSQSLLYESRNKNSVA,WASDRSS,QQYHRLPLS,0.94 1.04 1.05,1.01,1 of 9 (3.52)
KSSQSVLYMSRNGNSVA,WASTRDS,QQYHRLPLS,3.24 3.86 4.40,3.83,3 of 9 (4.47)
KSSQSVLYESRQKNSPA,WASTRES,QQYHRLPLS,4.38 4.30 nd,4.34,3 of 9 (4.08)
KSSLSVLYESRNKNSVA,WASTYES,QQYHRLPLS,2.81 3.90 nd,3.35,2 of 9 (4.27)
KPMQSVLYESRNKNSVA,WTSTRES,QQYHRLPLS,2.59 1.62 2.51,2.24,0 of 9
VSIQSVLYEGRNKNSVA,WASTRES,QQYHRLPLS,0.26 0.50 0.36,0.38,0 of 9
KSSQSVLQESRNKNSVA,WASTRES,QQYHRLNCS,nd nd nd,nd,1 of 9 (3.87)
KSSQSVPYESRNKNSVA,WASTRES,QQYVRLILS,nd nd nd,nd,1 of 9 (4.66)
KSSCSVLIEERNKNSVA,WASTRES,QQYHRLPLS,1.78 1.66 1.62,1.69,3 of 9 (3.56)
KSSQSVLYESRNQNSVA,WASTRYS,QQYHRYPLS,1.65 1.58 1.62,1.62,0 of 9
KSSQSTLYTSRNKNSVA,WASTRES,AQYHRLPLS,2.00 1.80 2.02,1.94,2 of 9 (3.90)
KSSQSVLGWSRNKNSVA,WASTRES,CQYHRLPLS,5.86 3.34 4.91,4.70,1 of 9 (3.87)

Excerpt, the final 2 entries:

| CDR-L1 | CDR-L2 | CDR-L3 | log10 Kd (nM) by replicate | mean log10 Kd (nM) | empty controls |
|---|---|---|---|---|---|
| KSSQSTLYTSRNKNSVA | WASTRES | AQYHRLPLS | 2.00 1.80 2.02 | 1.94 | 2 of 9 (3.90) |
| KSSQSVLGWSRNKNSVA | WASTRES | CQYHRLPLS | 5.86 3.34 4.91 | 4.70 | 1 of 9 (3.87) |

Nonspecific signal, from three strains lacking the peptide, appeared in 18% of pairings of library AAYL50, centred on 4.19 (5% of these signals below 2.99); values are not corrected for it. For each scFv, signals with the empty controls are counted beside the result, with their mean in brackets.

Reference: Engelhart et al. 2022, doi:10.1038/s41597-022-01779-4. File: FLAb, binding data.